# From patent US8957093B2, “N-biphenylmethylindole modulators of PPARG” (The Scripps Research Institute, priority 2011, dated 2015)
# Amino acid sequences for entries named in this document (tags omitted). Residues count along the entry.
# UniProt P37231, 238-503: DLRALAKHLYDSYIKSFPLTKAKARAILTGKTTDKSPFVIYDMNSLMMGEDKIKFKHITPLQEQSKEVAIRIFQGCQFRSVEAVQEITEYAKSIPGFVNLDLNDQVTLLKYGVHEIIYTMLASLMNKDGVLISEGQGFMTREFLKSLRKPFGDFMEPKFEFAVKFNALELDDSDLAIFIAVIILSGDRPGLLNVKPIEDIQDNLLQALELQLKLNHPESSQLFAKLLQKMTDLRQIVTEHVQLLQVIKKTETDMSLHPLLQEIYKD
# Target: Gal-4-PPAR (human PPAR LBD fused to GAL4 DNA-binding domain) (Homo sapiens (Human), UniProt P37231)
# Assay: GAL4-PPARG LBD / UAS-luciferase transactivation assay in HEK 293T cells
# Format: cell-based
compound,measurement,value
"CN(CCOc1ccc(CC2SC(=O)NC2=O)cc1)c1ccccn1 (stereo not shown) [rosiglitazone, reference compound]",activation of the GAL4 UAS reporter,about 100 fold
